Results published in ChEMBL document CHEMBL2311417, “Synthesis and biological evaluation of N-aryl-7-methoxybenzo[b]furo[3,2-d]pyrimidin-4-amines and their N-arylbenzo[b]thieno[3,2-d]pyrimidin-4-amine analogues as dual inhibitors of CLK1 and DYRK1A kinases” (Eur J Med Chem, 2013).

Chains of the proteins cited; added tags and fusions are not shown.
UniProt Q00535, whole entry: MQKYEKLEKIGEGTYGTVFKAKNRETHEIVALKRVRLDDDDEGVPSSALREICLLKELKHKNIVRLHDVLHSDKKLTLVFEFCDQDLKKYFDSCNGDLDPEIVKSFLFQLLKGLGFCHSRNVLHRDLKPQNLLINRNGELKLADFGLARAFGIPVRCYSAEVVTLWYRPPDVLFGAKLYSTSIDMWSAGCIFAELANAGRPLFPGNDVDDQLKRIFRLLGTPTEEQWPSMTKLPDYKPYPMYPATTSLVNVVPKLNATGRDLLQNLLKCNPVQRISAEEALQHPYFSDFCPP

Biological target: Cyclin-dependent kinase 5/CDK5 activator 1 (Homo sapiens, UniProt Q00535)
Assay: Inhibition of human recombinant CDK5/p25 after 30 mins by scintillation counting
Format: protein-complex assay

SMILES: COc1ccc2c(c1)[nH]c1c(C)nccc12 [HARMINE]
- IC50: > 10 µM
